# Assays:
# [1] = stability of crystalline form L at ambient conditions; conditions: ambient conditions (RT, 40-60% r.h.)
# [2] = storage of "crystalline form K" at different relative humidity or in vacuum (FT Raman, TG-FTIR, PXRD); conditions: for solid form after storage (FT Raman): two weeks at RT
# [3] = solubility in solvents (approximate solubility determination); conditions: in saturated hydrocarbons (n-pentane, n-hexane, n-heptane) and water
compound,measurement,setting,value
CN(C)[C@]1(c2ccccc2)CC[C@]2(CC1)OCCc1c3cc(F)ccc3[nH]c12,stability of the solid form,[1],slowly reconverts into crystalline form B
same,"solid form after storage in vacuum (FT Raman, TG-FTIR, PXRD)","[2]; RT, vacuum 100 mbar","a new crystalline form (crystalline form L), a desolvated form"
same,water content (TG-FTIR),[2]; after storage at 55% r.h.,7.8%
same,water content (TG-FTIR),[2]; after storage at 97% r.h.,9.0%
same,solid form after storage (FT Raman),[2]; 55% r.h. (saturated Mg(NO3)2),a mixture of crystalline form B and “crystalline form K” was obtained
same,solid form after storage (FT Raman),[2]; 79% r.h. (saturated NH4Cl),a mixture of crystalline form B and “crystalline form K” was obtained
same,solid form after storage (FT Raman),[2]; 97% r.h. (saturated K2SO4),crystalline form B was obtained
same,solubility,[3],only poorly soluble
